The results in this text go back to patent US20160367502A1, “FILM COATED PELLETS” (RATIOPHARM GMBH, priority 2012, published 2016).

Where only a bound is given, the exact number is not on record here.

This data set can be described thus: Solubility in water at 25° C. The format is physicochemical. On the procedure: If it is not known, it can be determined by conventional methods. […] The amount or concentration of the active pharmaceutical ingredient in the solution is determined by analytical techniques known in the art.

On to sitagliptin hydrogen sulfate, for which the “Solubility of sitagliptin salts in water at 25° C.” value was greater than 300 mg/mL.
